Results as given in patent US20250325793A1, “INTRACALVARIOSSEOUS DRUG ADMINISTRATION DEVICE FOR DELIVERING DRUG BY BYPASSING BLOOD-BRAIN BARRIER” (GACHON UNIVERSITY OF INDUSTRY-ACADEMIC COOPERATION …, priority 2023, published 2025).

Assay: Plasma, brain interstitial fluid (microdialysis) and whole-brain drug levels after intravenous (IV) and intracalvariosseous (ICO) administration
Conditions: rat, in vivo

With `Cc1nc2n(c(=O)c1CCN1CCC(c3noc4cc(F)ccc34)CC1)CCCC2` [RIS, risperidone] the “Cbr (brain drug concentration), ICO administration group relative to IV administration group” value was 115.2 times and the “brain-to-plasma ratio (Kp), ICO administration group relative to IV administration group” value was 36.3 times.
